These results are taken from patent publication US20250136617A1 (The Regents of the University of Colorado, A Body Corporate, priority 2022, published 2025).

Sequences of proteins named here, by UniProt entry; tags and fusion partners are left off.
UniProt P61073, whole entry: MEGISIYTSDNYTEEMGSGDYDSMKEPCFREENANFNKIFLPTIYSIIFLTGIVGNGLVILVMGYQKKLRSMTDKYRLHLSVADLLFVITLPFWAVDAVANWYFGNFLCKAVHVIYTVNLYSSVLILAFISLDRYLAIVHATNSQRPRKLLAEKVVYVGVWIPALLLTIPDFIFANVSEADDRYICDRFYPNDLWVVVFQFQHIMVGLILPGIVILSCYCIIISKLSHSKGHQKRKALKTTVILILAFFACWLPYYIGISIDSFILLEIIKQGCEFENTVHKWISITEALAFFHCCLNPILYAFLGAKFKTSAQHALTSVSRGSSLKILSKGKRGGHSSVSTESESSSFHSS

Molecules are shown by their SMILES. Like-named read-outs stand apart in the source and are kept apart here.

Experiment [1] concerns CEM-CCRF human lymphoblast cells. As to the kind of experiment: Transwell migration assay in CEM-CCRF lymphoblasts. In kind it is cell-based. The following applies: for EC50: read-out: Migration CEM EC50.
In a further experiment the target is CXCR4 (Homo sapiens, UniProt P61073). As to the kind of experiment: β-arrestin recruitment, 384-well, Tango CXCR4-bla U2OS cells, normalized to SDF-1α. In kind it is cell-based. The following applies: for EC50: read-out: TANGO β-arrestin EC50. On the procedure: UCUF-728 was further characterized in 384 w assays using SDF-1α from a different source than was used in the high throughput screening assay. […] Using this ligand source, UCUF-728 confirmed activation of β-arrestin recruitment with EC50=0.5 μM and Emax=30% normalized to SDF-1α (FIG. 2A).
Tango™ CXCR4-bla U2OS Cells (Invitrogen; K1779) were used for (β-arrestin recruitment assays and maintained as a monolayer culture in McCoy's 5a (Corning; 10-050-CV) supplemented with 10% dialyzed Fetal Bovine Serum (Gibco; 26400-044), 0.1 mM MEM Non-essential amino acids solution, 25 mM HEPES solution (Corning; 25-060-CI), 1 mM Sodium Pyruvate (Gibco; 11360-070), 200 μg/mL Zeocin selection reagent (Gibco; R25001), 50 μg/mL Hygromycin B (Gibco, 10687010), and 100 μg/mL Geneticin (G418 Sulfate) (Gibco, 10131035). U2OS cells were subcultured twice weekly by 0.05% Trypsin-EDTA treatment (Corning; 25-051-CI) and passaged to continue exponential growth phase for cell signaling assays. All cell cultures were maintained in cell culture incubators at 37° C. with 5% CO2. CHO-K1 CXCR4 cells (DiscoverX, Fremont, CA, USA) were used for cAMP inhibition assays and maintained as a monolayer culture in DMEM/F12 (Corning; 10-091-CV) supplemented with 10% Fetal Bovine Serum (Corning; 35-011-CV) and 100IU penicillin, […] streptomycin sulfate (Corning; 30-002-CI) and […] G418 (Gibco; 101310350. Cells were subculture 2 times weekly by o.o5% Trypsin-EDTA treatment (Corning; 25-051-CI) and passaged to continue exponential growth phase for cell signaling assays. All cell cultures were maintained in cell culture incubators at 37° C. with 5% CO2.CEM-CCRF cells (ATCC CCL-119) were used in both the migration and calcium flux assays and were cultured in growth media consisting of RPMI 1640 (Corning; 10-040-CV) supplemented with 10% Fetal Bovine Serum (Corning; 35-011-CV), and 100 IU penicillin, […] streptomycin sulfate (Corning; 30-002-CI). Cells were maintained in suspension and sub-cultured twice weekly to maintain cell densities between 0.8×10^6 cells/mL and 2.5×10^6 cells/mL to maintain exponential growth phase. Cells were harvested for use in migration and calcium flux assays at 2.0×10^6 cells/mL to 2.5×10^6 cells/mL and resuspended in assay media to desired density for respective experiments.
Compounds, SDF-1α (PeproTech; 30028A), and DMSO (Sigma Aldrich; St. Louis, MO) normalization to 0.5% were dispensed using the TECAN D300e digital dispenser into a 384-well black wall clear-bottom microplate (Corning; Corning, NY). Tango™ CXCR4-bla U2OS Cells were resuspended in assay media consisting of DMEM (Corning; Corning, NY) supplemented with 1% dialyzed Fetal bovine serum, 0.1 mM MEM Non-essential amino acids solution, 25 mM HEPES solution (Corning; Corning, NY), 1 mM Sodium Pyruvate and 100 IU penicillin, […] streptomycin sulfate (Corning; Corning, NY) at a density of 3.0×10^5 cells/ml. Assay media FreeStyle 293 expression Medium (Gibco; 12338018) was used for testing the thiadiazine scaffold CXCR4 agonists. Cells suspension was dispensed at 30 μl per well into assay plate and incubated overnight in a cell culture incubator at 37° C. with 5% CO2. For testing the thiadiazine scaffold CXCR4 agonists, following overnight incubation, CXCL12 ligand (PeproTech; 30028A), was dispensed manually and cells were incubated for additional 5 hours in a cell culture incubator. Following overnight incubation, LiveBlazer FRET B/G Loading Kit (Invitrogen; K1095) working reagent was prepared according to supplier guidelines and 6 μl of solution was dispensed into each well; 8 μL of solution for testing the thiadiazine scaffold CXCR4 agonists. Assay plate was covered and incubated in a dark place for two hours and Fluorescence Intensity was measured using the BMG LABTECH CLARIOstar Plus (BMG LABTECH Inc., Cary, NC) according to the LiveBlazer FRET B/G Loading Kit excitation and emission measurement guidelines. […]

Consider `CCOc1ccccc1-c1nnc2n1N=C(c1ccc3[nH]c(=O)[nH]c3c1)CS2`, for which the EC50 was more than 10 µM in experiment [1] (Table 3, Formula IIc-1) and more than 10 µM at CXCR4 (Table 3, Formula IIc-1).
Regarding `CCOc1ccccc1-c1nnc2n1N=C(c1ccc(O)cc1)CS2`, in experiment [1], the “Migration CEM Emax (%)” value is listed as “A (A ≥ 70)” and the EC50 is less than 5 µM. Also, at CXCR4 (normalized to SDF-1), the “TANGO β-arrestin Emax (%)” value was “A (A ≥ 70)” and the EC50 is less than 5 µM.
Consider `CCOc1ccccc1-c1nnc2n1N=C(c1ccc(C(=O)N3CCC3)cc1)CS2`, for which, in experiment [1], the “Migration CEM Emax (%)” value is given as “B (35 < B < 70)” and the EC50 is less than 5 µM. Further, at CXCR4 (normalized to SDF-1), the EC50 is more than 10 µM.
Turning to `CCOC(=O)CNC(=O)c1ccc(C2=Nn3c(nnc3-c3ccccc3OCC)SC2)cc1`, the EC50 in experiment [1] is more than 10 µM. Moreover, on CXCR4 (normalized to SDF-1), the “TANGO β-arrestin Emax (%)” value is on record as “C (C ≤ 35)” and the EC50 was less than 5 µM.
